The test relates to metastatic gastric cancer. The test is described as follows: Clinical response of HER2-positive metastatic gastric cancer patients to combination therapy with trastuzumab. Type of test: in vivo, patient. The text has this: The present invention was applied to gastric cancer tissues isolated from pre-treatment of two male gastric cancer patients (patients 7 and 8) who were both positive on HER2 immunostaining (3+, 2+) and received combination therapy with trastuzumab (trade name: Herceptin), which is a HER2-targeting agent.

The source of these data is US20240085426A1, “TRIPLE QUADRUPOLE-BASED MULTIPLE REACTION MONITORING FOR CLINICAL THERAPEUTIC RESPONSE PREDICTION IN CANCER” (NATIONAL CANCER CENTER, priority 2020, published 2024).

As to trastuzumab, the clinical response entry runs as follows: (patient 7, first-line, HER2 immunostaining positive) “partial response”; (patient 8, first-line, at first response evaluation, treatment discontinued) “progressive disease”.
